Experiment [1] addresses T1, MBP-IKKβ (701–745) (Homo sapiens, UniProt O14920).
T1 construct: made in house; host or cells: E. coli BL21(DE3)
As to the kind of experiment: SPR affinity assay on immobilized MBP-IKKβ. As to conditions: read-out: KD of GST-NEMO (1–196) binding to immobilized MBP-IKKβ (701–745). The protocol: MBP-IKKβ was immobilized on the surface of the CM5 chip using the amine-coupling approach at a flow rate of 10 μL/min in 10 mM sodium acetate buffer (pH 5.0). The sensor surface was activated with a 7 min injection of a mixture comprising 50 mM N-hydroxysuccinimide (NHS) and 200 mM 1-ethyl-3-(3- dimethylaminopropyl) carbodiimide (EDC). Then, 33 μg/mL of IKKβ was injected to reach the target level of 500 RU and the surface was blocked with 1 M ethanolamine, pH 8.5. A series of concentrations of NEMO or SHK were injected into the flow system and analyzed for 90 or 120 s, followed by dissociation for 90 or 600 s. All binding analyses was performed in phosphate-buffered saline (PBS, pH 7.4) with 0.05% (v/v) Tween-20 at 25 °C. Prior to analysis, double reference subtractions were made to eliminate bulk refractive index changes, injection noise, and data drift. The binding affinity was determined by fitting to a Langmuir 1:1 binding model in the Biacore Evaluation software (GE Healthcare).

The chains behind the UniProt entries cited, without tags or fusion partners. Residues count along the entry.
UniProt O14920, 701-745: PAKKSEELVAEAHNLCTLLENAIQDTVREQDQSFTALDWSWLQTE

Experiment [2] concerns the target T1, MBP-IKKβ (701–745). As to the kind of experiment: MST binding assay to IKKβ. As to conditions: NEMO to IKKβ, read-out: KD for GST-NEMO (1–196).

One may read the Kd as a measure of binding affinity in units of concentration.

“GST-NEMO (1–196): truncated GST-tagged NEMO residues 1–196 expressed in E. coli”: the results for the Kd with MBP-IKKβ (701–745) [1] and in the experiment with MBP-IKKβ (701–745) [2] were 261 ± 62 nM and 209 ± 32.5 nM, respectively.

For the origin of these results see paper PMC8904520, “Characterization of a small-molecule inhibitor targeting NEMO/IKKβ to suppress colorectal cancer growth” (Signal Transduction and Targeted Therapy, 2022).
